## Apparent affinities of Ab-14 variants for a coronavirus HR2 peptide

Values reported by Engelhart et al. 2022, doi:10.1038/s41597-022-01779-4 (FLAb copy).

The target is the same throughout: PDVDLGDISGINAS, from the HR2 region of SARS-CoV-2 spike.

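The starting antibody came from a phage panning campaign against this peptide. Library AAYL50 holds single substitutions and randomly drawn double and triple substitutions in the CDRs. The scFvs were displayed on barcoded MATa yeast, the peptide on MATalpha yeast. Pairs that bind mate more often; barcode pairs of the diploids are counted by sequencing. A regression on co-assayed BCL2-family reference pairs converts the normalised counts of each replicate to an apparent Kd. There are three technical replicates.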

Each scFv is VH, a (GGGGS)3 linker, VL, as in the parent Ab-14, and differs from it in the CDRs of the light chain only.
VH: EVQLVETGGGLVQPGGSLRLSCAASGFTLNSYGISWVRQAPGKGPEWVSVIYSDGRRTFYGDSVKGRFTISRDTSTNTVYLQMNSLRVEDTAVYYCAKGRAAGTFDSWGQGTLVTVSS
VL: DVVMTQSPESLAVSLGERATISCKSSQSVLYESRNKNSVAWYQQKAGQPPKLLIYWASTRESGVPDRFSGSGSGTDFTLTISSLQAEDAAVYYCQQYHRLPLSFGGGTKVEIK

The parent's light chain CDRs are KSSQSVLYESRNKNSVA, WASTRES, QQYHRLPLS; each variant's own CDRs replace them letter for letter. Affinities are written as log10 Kd with Kd in nM; a lower number is a better binder. Where no diploid with the target was found in that replicate, the entry reads "nd": below detection, most likely a poor binder, though not proof of it. As a blank, each scFv also met three strains without target: over library AAYL50, 18% of these pairings were detected, typically at 4.19 and seldom below 2.99. For each scFv, signals with the empty controls are counted beside the result, with their mean in brackets.

CDR-L1 | CDR-L2 | CDR-L3 | replicates, log10 nM | control signals
CSSQSVLYGSWNKNSVA | WASTRES | QQYHRLPLS | nd nd nd | 1/9 (3.01)
KSSQSVLYESRNKNFVA | WASTYES | QQYHRSPLS | nd nd nd | 0/9
KSSQSVLKESRNKNSMA | WASTRES | QQYHRLPLK | 2.88 2.31 3.10 | 0/9
KSSQSVLYESRNKNSVM | WASTRCS | QQYHRLSLS | 5.83 3.72 4.90 | 3/9 (4.29)
FSSQSVEYESRNKNSVA | SASTRES | QQYHRLPLS | nd nd nd | 0/9
KSSQSVLYESRAKNSVA | WAITRES | QIYHRLPLS | 1.59 1.56 nd | 0/9
ASSQSVLYESRPKNSVA | WASTRES | QQYHRLKLS | 3.45 nd nd | 2/9 (2.59)
KSSQSVLYESRNKTSVE | WASTRES | QKYHRLPLS | 5.44 nd nd | 1/9 (3.52)
KSSQSVLYESRNKNQVA | WASTRES | QQYHRLTLS | 1.59 1.94 1.74 | 3/9 (3.84)
ASWQSVLYESRNKQSVA | WASTRES | QQYHRLPLS | nd nd nd | 0/9
KNSQSVLYEDRNKNSVA | WASTRES | QQYHRLPTS | 4.15 nd nd | 0/9
KSSQSVWYESRNKNSMA | WASTRES | QQQHRLPLS | 1.35 1.42 1.38 | 0/9
KSSQSHLYESRNKNSVA | WASARES | QQYHRLPLS | 2.30 1.84 2.00 | 6/9 (4.29)
KSWQSVLYESRNKNSVA | WASTRTS | QQYHRLPPS | nd nd nd | 0/9
KSSQSVLYESRIKNSVA | WASTRES | QQWHRLPLS | 4.14 4.74 nd | 3/9 (3.69)
KSSQSVLYCSRVKNSVA | WASTRES | QMYHRLPLS | nd nd nd | 0/9
LSSQFVLYTSRNKNSVA | WASTRES | QQYHRLPLS | nd nd nd | 1/9 (3.80)
KSSTSVLYESRNKNSVA | WASTHES | QTYHRLPLS | nd nd nd | 0/9
KSSQSVLYESRNKNYVY | WASTRES | QQYHQLPLS | nd nd nd | 0/9
YSSQSVLYESRNKNSVA | WASTRWS | QQYHRLCLS | nd nd nd | 2/9 (3.96)
KSSQSLLYESRNKNSVA | WASTRES | QQYHRVPLS | 0.85 0.94 1.04 | 3/9 (4.75)
KSSQSDLYESRNKNSVA | WMSTRES | QQTHRLPLS | nd nd nd | 0/9
KSSQWVLYESRNKNSVA | WASTRER | FQYHRLPLS | nd nd nd | 0/9
KSSQSVLYESRNPNMVA | WASTRES | QQYHRMPLS | 3.00 2.61 4.63 | 2/9 (3.87)
KSSQSVLCESRNKNSVA | WASTRYS | QLYHRLPLS | 4.23 2.66 4.53 | 5/9 (3.91)
KSSQSVLYESRNKNSVA | WACTRES | QQPHRLPLQ | 3.85 5.12 4.86 | 4/9 (5.19)
KSSQSVLDESRNKNSVA | WASTREL | KQYHRLPLS | 5.35 nd 4.07 | 0/9
KSSQSCLYESRNKNSWA | WASTRES | QQYHRLPLS | nd nd nd | 0/9
KSSQSVLYESRNKNSVA | WASTRES | QQYEWLPLC | 0.76 1.02 0.87 | 2/9 (5.00)
KSSQSVLYESRNKNSVA | WASVRKS | QQYHRLPNS | nd nd nd | 0/9
KSSQSVLYESRNKNSVS | VASTRES | QQYHHLPLS | nd nd nd | 1/9 (3.61)
KSAQSVLYESRNKSSVA | WRSTRES | QQYHRLPLS | nd nd nd | 1/9 (4.48)
KSGQSVLYESRNKNSVA | WASWRES | QQYSRLPLS | 1.55 1.76 1.49 | 1/9 (3.23)
KSSQSVLYESRNKNSVA | WASTRES | QQMHTLPLL | 0.36 0.82 0.64 | 0/9
KSSWSVLYESRNKNSVL | WASTRPS | QQYHRLPLS | nd 4.65 nd | 4/9 (4.12)
KSSQSVLYESRNKNSVA | WASTIMS | QQYHILPLS | 2.25 2.33 2.09 | 0/9
KSSQSVLYVSRNKNSVA | WASTRES | QQYHWQPLS | nd nd nd | 0/9
KSVQSVLYESRNENSVA | WASTRES | QQYWRLPLS | 1.86 1.85 2.14 | 1/9 (3.39)
KSSQSVLYEHRNKHSVA | WNSTRES | QQYHRLPLS | 4.51 nd 4.19 | 4/9 (3.98)
KSSQSVLYESRRKNSVA | WASTRES | QGYHPLPLS | nd nd nd | 1/9 (4.41)
KSSQSVLYESRNKNSVS | WASTRES | QMYHRLPLS | nd nd nd | 0/9
KSSQSVLYELRNKNSVA | WASTRES | WQYKRLPLS | 4.17 nd nd | 0/9
KSSQSVLYESRNTNSVA | WASTRAS | QQYHRLVLS | 6.41 nd nd | 3/9 (3.97)

The 6 strongest on average among those seen in every replicate, once more:

| CDR-L1 | CDR-L2 | CDR-L3 | replicates, log10 nM | control signals |
|---|---|---|---|---|
| KSSQSVLYESRNKNSVA | WASTRES | QQMHTLPLL | 0.36 0.82 0.64 | 0/9 |
| KSSQSVLYESRNKNSVA | WASTRES | QQYEWLPLC | 0.76 1.02 0.87 | 2/9 (5.00) |
| KSSQSLLYESRNKNSVA | WASTRES | QQYHRVPLS | 0.85 0.94 1.04 | 3/9 (4.75) |
| KSSQSVWYESRNKNSMA | WASTRES | QQQHRLPLS | 1.35 1.42 1.38 | 0/9 |
| KSGQSVLYESRNKNSVA | WASWRES | QQYSRLPLS | 1.55 1.76 1.49 | 1/9 (3.23) |
| KSSQSVLYESRNKNQVA | WASTRES | QQYHRLTLS | 1.59 1.94 1.74 | 3/9 (3.84) |

Parent in this assay: reference entry 0.65, copy in this library 1.68.